Values quoted from earlier work, collected in PubChem BioAssay AID1811 (Shanghai Institute of Organic Chemistry, 2009).
The list shows a part of the results. The source made the active and inactive calls. Where no limit is named, active and inactive come without a cut-off here.

System: glutamate receptor 2
Assay: PubChem AID 1811
Settings: PDB complex binding affinities from literature

CN1CCc2c(-c3ccc(S(=O)(=O)N(C)C)cc3)cc3c(c2C1)NC(=O)/C3=N/O[C@@H](CCO)C(=O)O
outcome: active
